ChEMBL document CHEMBL1142336, “Overcoming undesirable HERG potency of chemokine receptor antagonists using baseline lipophilicity relationships” (J Med Chem, 2008)

Amino acid sequences for entries named in this document (tags omitted).
UniProt P51685, whole entry: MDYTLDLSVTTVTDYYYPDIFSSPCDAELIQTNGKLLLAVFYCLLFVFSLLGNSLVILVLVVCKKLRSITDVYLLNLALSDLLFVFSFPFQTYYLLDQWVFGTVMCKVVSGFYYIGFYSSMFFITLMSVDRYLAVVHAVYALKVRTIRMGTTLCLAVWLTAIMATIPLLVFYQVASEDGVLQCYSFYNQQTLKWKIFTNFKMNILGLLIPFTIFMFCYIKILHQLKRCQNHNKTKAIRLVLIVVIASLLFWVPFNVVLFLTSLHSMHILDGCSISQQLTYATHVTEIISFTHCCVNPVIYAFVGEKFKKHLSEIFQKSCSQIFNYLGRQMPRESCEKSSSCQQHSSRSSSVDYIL

Molecular target: C-C chemokine receptor type 8 (Homo sapiens, UniProt P51685)
Assay: Antagonist activity at CCR8 receptor
Format: functional

Structure (SMILES) | IC50 [nM]
O=C(c1ccncc1)N1CCC2(CCN(Cc3cccc(Oc4ccccc4)c3)CC2)CC1 | 18.2
COc1ccccc1Oc1ccccc1CN1CCC2(CC1)CCN(C(=O)c1ccccn1)CC2 | 16.2
